Measured values from PMC7823355, “Pretreatment Effect of Inflammatory Stimuli and Characteristics of Tryptophan Transport on Brain Capillary Endothelial (TR-BBB) and Motor Neuron Like (NSC-34) Cell Lines” (Biomedicines, 2020).

Protein sequences, listed by entry. Tags and fused reporters are not part of them. Lines headed by an entry give the natural chain unless they say otherwise; changes in a name come on top.
UniProt Q63016: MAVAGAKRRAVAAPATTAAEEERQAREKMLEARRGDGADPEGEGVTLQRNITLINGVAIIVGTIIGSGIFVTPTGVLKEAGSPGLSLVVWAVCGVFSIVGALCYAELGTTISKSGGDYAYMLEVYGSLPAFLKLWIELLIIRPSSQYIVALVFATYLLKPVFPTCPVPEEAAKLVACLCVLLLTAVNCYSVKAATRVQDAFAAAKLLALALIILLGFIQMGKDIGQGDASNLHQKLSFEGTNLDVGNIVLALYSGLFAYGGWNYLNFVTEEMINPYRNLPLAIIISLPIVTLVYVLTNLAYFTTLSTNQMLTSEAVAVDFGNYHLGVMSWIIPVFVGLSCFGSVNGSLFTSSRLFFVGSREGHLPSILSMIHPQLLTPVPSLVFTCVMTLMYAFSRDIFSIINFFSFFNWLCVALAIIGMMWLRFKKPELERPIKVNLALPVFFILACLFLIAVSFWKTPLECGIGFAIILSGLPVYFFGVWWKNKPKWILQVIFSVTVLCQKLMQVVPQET

Target: T1, LAT1 (L-type amino acid transporter 1) (Rattus norvegicus, UniProt Q63016)
T1 construct: gene Slc7a5; endogenous LAT1 in TR-BBB cells
Test: radiolabelled uptake kinetics (Km) in TR-BBB cells, with LAT1 siRNA knockdown
Type: cell-based

Question: For `N[C@@H](Cc1c[nH]c2ccccc12)C(=O)O` [L-tryptophan], which Km is on record?
Answer: Its Km is 121 ± 11 µM.
